ChEMBL document CHEMBL3399974, “Discovery and SAR of novel series of imidazopyrimidinones and dihydroimidazopyrimidinones as positive allosteric modulators of the metabotropic glutamate receptor 5 (mGlu5)” (Bioorg Med Chem Lett, 2015)

Amino acid sequences for entries named in this document (tags omitted).
UniProt P41594, whole entry, looked up: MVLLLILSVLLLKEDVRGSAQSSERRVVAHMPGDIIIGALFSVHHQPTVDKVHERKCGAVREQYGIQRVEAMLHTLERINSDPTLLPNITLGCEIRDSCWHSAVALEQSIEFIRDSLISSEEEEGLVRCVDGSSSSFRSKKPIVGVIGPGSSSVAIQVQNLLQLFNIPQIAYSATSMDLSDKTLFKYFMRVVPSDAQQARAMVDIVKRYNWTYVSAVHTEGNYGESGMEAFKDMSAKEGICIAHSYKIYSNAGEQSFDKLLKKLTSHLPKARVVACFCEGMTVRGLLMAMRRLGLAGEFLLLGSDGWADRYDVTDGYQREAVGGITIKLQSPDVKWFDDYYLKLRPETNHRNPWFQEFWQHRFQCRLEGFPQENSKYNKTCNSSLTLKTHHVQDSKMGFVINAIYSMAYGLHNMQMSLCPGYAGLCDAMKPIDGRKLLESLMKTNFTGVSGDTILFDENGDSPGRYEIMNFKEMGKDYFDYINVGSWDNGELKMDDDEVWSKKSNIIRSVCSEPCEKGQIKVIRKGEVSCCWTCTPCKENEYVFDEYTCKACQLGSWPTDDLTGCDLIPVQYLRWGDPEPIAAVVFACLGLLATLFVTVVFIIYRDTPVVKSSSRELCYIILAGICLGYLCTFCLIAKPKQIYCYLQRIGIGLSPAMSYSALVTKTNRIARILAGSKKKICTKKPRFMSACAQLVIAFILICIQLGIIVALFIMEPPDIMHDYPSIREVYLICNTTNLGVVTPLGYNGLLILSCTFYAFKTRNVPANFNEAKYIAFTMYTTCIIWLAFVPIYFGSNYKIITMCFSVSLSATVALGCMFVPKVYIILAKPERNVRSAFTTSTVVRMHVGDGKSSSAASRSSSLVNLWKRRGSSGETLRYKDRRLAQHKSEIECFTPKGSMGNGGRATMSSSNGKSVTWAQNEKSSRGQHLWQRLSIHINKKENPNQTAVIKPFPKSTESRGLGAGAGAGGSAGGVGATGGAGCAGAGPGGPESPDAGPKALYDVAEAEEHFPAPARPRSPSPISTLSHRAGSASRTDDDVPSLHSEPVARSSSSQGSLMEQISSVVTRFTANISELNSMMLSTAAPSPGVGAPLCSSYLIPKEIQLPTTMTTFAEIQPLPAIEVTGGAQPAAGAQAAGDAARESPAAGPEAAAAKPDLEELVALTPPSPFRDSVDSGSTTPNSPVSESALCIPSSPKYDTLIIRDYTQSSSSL

How the values were obtained:
HEK293 = assay: Selectivity ratio of IC50 for mGluR3 (unknown origin) to EC50 for rat mGluR5 expressed in HEK293 cells; assay type: cell-based
[1] = target: Metabotropic glutamate receptor 5 (Homo sapiens) (UniProt P41594); assay: Agonist activity at mGluR5 (unknown origin) assessed as potentiation of glutamate-induced response at 10 uM relative to glutamate

O=C1N(c2ccc(F)cc2)CCc2nc(COc3ccccc3)cn21 was tested, and the Ratio IC50/EC50 (HEK293) was 2 and the fold change (FC) [1] was 12.5.
With O=c1n(-c2ccc(F)cc2)ccc2nc(COc3ccccc3)cn12 the Ratio IC50/EC50 (HEK293) was 2.
